Data from PubChem BioAssay AID1777 (Sanford-Burnham Center for Chemical Genomics, 2009).
This is one part of the list. Potency and affinity values are given separately. Calls of active or inactive are those of the source. No stated cut-off is given here; in the data, active means activation above about 50% (passing the limit was not always enough); inactive means the rest.

Amino acid sequences for entries named in this document (tags omitted). A change or cut given only in a name is not applied to a line headed by its entry.
UniProt P41145: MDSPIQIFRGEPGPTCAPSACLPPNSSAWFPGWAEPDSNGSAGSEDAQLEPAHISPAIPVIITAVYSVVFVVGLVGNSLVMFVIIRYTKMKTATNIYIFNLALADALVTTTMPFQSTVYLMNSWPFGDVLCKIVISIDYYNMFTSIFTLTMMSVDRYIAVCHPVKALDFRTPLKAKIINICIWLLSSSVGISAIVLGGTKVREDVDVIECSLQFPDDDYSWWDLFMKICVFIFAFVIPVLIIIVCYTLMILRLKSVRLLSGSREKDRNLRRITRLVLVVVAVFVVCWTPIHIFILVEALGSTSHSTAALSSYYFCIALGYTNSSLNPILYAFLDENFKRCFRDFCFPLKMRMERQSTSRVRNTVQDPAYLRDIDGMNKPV

What follows are molecules tested against Kappa-type opioid receptor (Homo sapiens) (UniProt P41145) (assay: kappa opioid receptor activators – cell-based, luminescence, uHTS, primary screen (AID 1777)). Conditions: KOR beta-arrestin recruitment, at 10 µM, active compounds read high.
In the case of `COc1ccc(N2C(=O)CC(N3CCC(n4c(=O)[nH]c5ccccc54)CC3)C2=O)cc1` (stereo not drawn), the activation is reported as inactive: 1.7%. For `O=C(Cn1c(CC(=O)N2CCCC2)nc2ccccc21)NCc1ccccc1`, the activation was inactive: -0.7%. For `COCCOC(=O)C1=C(C)N=C2SCCC(=O)N2C1/C=C/c1ccccc1` (stereo not drawn), the activation was inactive: -8.6%. In the case of `Cc1ccc2c(c1)C1CN(C)CCC1N2C(=O)/C=C/c1ccc2c(c1)OCO2` (stereo not drawn), the activation is reported as inactive: 0.2%. In the case of `COc1cc(C(=O)OCCn2c(=O)c3c(ncn3CCN(C)C)n(C)c2=O)cc(OC)c1OC`, the activation is reported as inactive: 3.4%. `CSCC[C@H](NC(=O)N1CCn2c1nc1ccccc12)C(=O)NCc1ccc(F)cc1` was tested, and the activation was inactive: 7.3%. `Nc1ccc([As](=O)(O)c2ccc([N+](=O)[O-])cc2)cc1` was tested, and the activation was inactive: 4.4%. In the case of `N=c1n(CCO)c2ccccc2n1CCN1CCCCC1`, the activation is reported as inactive: -1.5%. For `O=C(Nc1ccccc1Cl)N1CCn2c(nc3ccccc32)C1`, the activation was inactive: -4.9%. `C(Cc1nn[nH]n1)Cc1nn[nH]n1` was tested, and the activation was inactive: 6.9%. For `COc1ccc(CCNC(=O)Cn2cnc3c2c(=O)n(C)c(=O)n3C)cc1OC`, the activation was inactive: -0.4%. With `Cn1c(=O)[nH]c(=O)c2c1nc(CN(Cc1ccccc1)Cc1ccccc1)n2CCN1CCOCC1` the activation was inactive: -3.5%. `CN(C)C(=O)Cn1c(SCC(=O)NC2CCCCC2)nc2ccccc21` was tested, and the activation was inactive: 0.3%. `CC(=O)Nc1ccc2c(c1)nc1n2CCN(C(C)c2ccccc2)C1` (stereo not drawn) was tested, and the activation was inactive: 1.6%. For `CCN(CC)CCn1c(NCc2ccccn2)nc2ccccc21`, the activation was inactive: 1.5%. For `CCN(CC)CCn1c(N)nc2ccccc21`, the activation was inactive: 8.6%. With `Cc1ccc(C(C(=O)NC2CCCCC2)N(Cc2ccco2)C(=O)Cn2cnc3ccccc32)cc1` (stereo not drawn) the activation was inactive: -4.7%. In the case of `CC(O)CNc1nc2ccccc2n1CC(=O)NCC(F)(F)F` (stereo not drawn), the activation is reported as inactive: -2.3%. With `O=C(CSc1nc2ccccc2n1CC(=O)N1CCCC1)N1CCN(C(=O)c2ccco2)CC1` the activation was inactive: -0.7%. In the case of `C[C@H](NC(=O)N1CCn2c1nc1ccccc12)C(=O)NCCc1ccccc1`, the activation is reported as inactive: 1.2%. For `CCC(=O)Nc1ccc(NC(=O)/C=C/c2ccc(Cl)cc2)cc1`, the activation was inactive: -1%. In the case of `NC(=O)Cn1c2[n+](c3ccccc31)CC(O)CS2` (stereo not drawn), the activation is reported as inactive: 3.8%. For `CCN(CC)CCn1c(=N)n(CC(=O)c2ccc(C)cc2)c2ccccc21`, the activation was inactive: -0.7%. `O=P(Nc1ccccn1)(c1ccc(Br)cc1)c1ccc(Br)cc1` was tested, and the activation was inactive: -3.3%. For `Cc1nnc(NC(=O)Cn2cnc3c2c(=O)n(C)c(=O)n3C)s1`, the activation was inactive: -7.3%. `Cc1ccc(/C=N/NC(=O)Cn2cnc3c2c(=O)n(C)c(=O)n3C)s1` was tested, and the activation was inactive: -0.3%. For `CSc1ccccc1NC(=O)Cn1c(-c2cscn2)nc2ccccc21`, the activation was inactive: -4.5%. With `O=C(Cn1cnc2ccccc21)N/N=C/c1ccccn1` the activation was inactive: 0.8%. `CC(O)c1nc2ccccc2n1CC(=O)Nc1ccc2c(c1)OCCO2` (stereo not drawn) was tested, and the activation was inactive: -1.7%. `CSCC[C@H](NC(=O)N1CCn2c1nc1ccccc12)C(=O)NCC1CCCO1` (stereo partly drawn) was tested, and the activation was inactive: -3.9%. In the case of `CCOCN(C(=O)Cn1c(CO)nc2ccccc21)c1c(C)cccc1CC`, the activation is reported as inactive: -1.2%. In the case of `Cc1nc2ccccc2n1CC(=O)NC1CCCC1`, the activation is reported as inactive: -1.2%. For `O=C(Cn1c2[n+](c3ccc(C(F)(F)F)cc31)CCCCC2)Nc1ccccc1`, the activation was inactive: 5%. `Cc1ccc(Cn2nnnc2CN2CCC(n3nnc4ccccc43)CC2)cc1` was tested, and the activation was inactive: 5.7%. With `COc1ccc(OC)c(C(=O)CSc2nc3ccccc3n2CC(=O)NC(C)(C)C)c1` the activation was inactive: -1.3%. `O=c1oc2ccccc2c2c1ncn2CCN1CCOCC1` was tested, and the activation was inactive: 5.9%. With `CCN(CC)CCn1c(NS(=O)(=O)c2ccc(Cl)cc2)nc2ccccc21` the activation was inactive: -1.5%. With `Cn1c(=O)c2c(nc(CN3CCN(c4ccccc4)CC3)n2CCN2CCOCC2)n(C)c1=O` the activation was inactive: -0.1%. `C[C@H]1OP(=O)(Oc2ccccc2)[C@H](O)[C@H](O)[C@H]1N=[N+]=[N-]` (stereo partly drawn) was tested, and the activation was inactive: -1%. With `Cc1cc2ncn(C3CC(=O)N(Cc4ccc(N5CCCC5=O)cc4)C3=O)c2cc1C` (stereo not drawn) the activation was inactive: -0.9%. `Cn1c(=O)c2c(ncn2CC(=O)N/N=C/c2c[nH]c3ccccc23)n(C)c1=O` was tested, and the activation was inactive: 1.5%. `COc1ccccc1OCCSc1nc2ccccc2n1CC(N)=O` was tested, and the activation was inactive: 0.5%. In the case of `Cn1c(=O)c2c(ncn2CC(=O)N2CCOCC2)n(C)c1=O`, the activation is reported as inactive: -1.6%. For `Cn1c(=O)c2c(ncn2CC(=O)Nc2nc(-c3ccc(F)c(F)c3)cs2)n(C)c1=O`, the activation was inactive: -0.7%. `O=P(Nc1nc2ccccc2s1)(c1ccccc1)c1ccccc1` was tested, and the activation was inactive: 1.6%. In the case of `N=c1n(CCN2CCCC2)c2ccccc2n1CC(O)c1ccco1` (stereo not drawn), the activation is reported as inactive: -1.8%. `CC(C)N(C(=O)Cn1c(SCC(=O)NC2CC2)nc2ccccc21)C(C)C` was tested, and the activation was inactive: 3%. `O=C(Cn1c(=O)n(CC(=O)NCc2ccccc2)c2ccccc21)NCc1ccccc1` was tested, and the activation was inactive: -8.2%. With `Cc1ccc2c(c1)C1CN(C)CCC1N2C(=S)NC(=O)c1ccc(Cl)cc1Cl` (stereo not drawn) the activation was inactive: 2.5%. In the case of `CC(/C=N\NC(=O)Cn1c(C)nc2ccccc21)=C\c1ccccc1`, the activation is reported as inactive: -1.2%. With `Cc1ccc(C)c(Cn2c(=O)c3c(nc4n3CCN4Cc3ccco3)n(C)c2=O)c1` the activation was inactive: -11.9%. For `CCCC(=O)Nc1ccc2c(c1)nc1n2CCN(CCOC)C1`, the activation was inactive: 6%. With `CCC(=O)N1C2C3N(C(=O)CC)C1C1N(C(=O)CC)C(C(N1C(=O)CC)N3C(=O)CC)N2C(=O)CC` the activation was inactive: -0.1%. With `O=C(OC1CN2CCC1CC2)c1ccccc1` (stereo not drawn) the activation was inactive: -0.2%. For `CC(O)CNc1nc2ccccc2n1CC(=O)NC12CC3CC(CC(C3)C1)C2` (stereo not drawn), the activation was inactive: -1.5%. `CC1CN(CCn2cnc3c(N)ncnc32)CC(C)O1` (stereo not drawn) was tested, and the activation was inactive: -1.9%. In the case of `Cc1ccc2c(c1)C1CN(C)CCC1N2C(=O)c1cccc(S(=O)(=O)N(C)C)c1` (stereo not drawn), the activation is reported as inactive: -3.5%. For `O=C(CCCCCNC(=O)N1CCn2c1nc1ccccc12)NCc1ccc(F)cc1`, the activation was inactive: -1.5%. With `O=C1CC(N2CCC(n3c(=O)[nH]c4ccccc43)CC2)C(=O)N1Cc1ccccc1` (stereo not drawn) the activation was inactive: 8.9%. For `CC(C)N(C(=O)Cn1c(SCC(=O)Nc2nccs2)nc2ccccc21)C(C)C`, the activation was inactive: 1.2%. For `CC(C)[C@H](NC(=O)N1CCn2c1nc1ccccc12)C(=O)NCCc1ccccc1`, the activation was inactive: -5.4%. `CN1CCC(N(C)c2ccc(C(N)=O)cc2[N+](=O)[O-])CC1` was tested, and the activation was inactive: 1.9%. For `Cc1ccc2c(c1)C1CN(C)CCC1N2S(=O)(=O)c1ccccc1` (stereo not drawn), the activation was inactive: 4.5%. For `CCc1cccc(CC)c1N(COC)C(=O)Cn1c(C(C)O)nc2ccccc21` (stereo not drawn), the activation was inactive: 3.4%. In the case of `Cn1c(=O)c2c(ncn2CC(=O)Nc2ccccc2N2CCOCC2)n(C)c1=O`, the activation is reported as inactive: -1%. For `FC(F)(F)c1nc2ccccc2n1CCNc1nc(CN2CCCCC2)cs1`, the activation was inactive: 2.2%. In the case of `Cc1ccc(OP(=O)(Nc2ccccn2)Oc2ccc(C)cc2)cc1`, the activation is reported as inactive: -3%. `CC(=O)NC(SC(=S)N(CC(C)C)CC(C)C)C(Cl)(Cl)Cl` (stereo not drawn) was tested, and the activation was inactive: -0.4%. For `Cn1c(=O)c2c(ncn2CC(=O)NC2CCCCC2)n(C)c1=O`, the activation was inactive: 8.2%. For `COC(=O)c1cc2c(s1)N=C(c1ccccc1)N(C)P2(=O)N1CCOCC1` (stereo not drawn), the activation was inactive: 1.9%. In the case of `CC(C)NC(=O)Cn1cnc2c1c(=O)n(C)c(=O)n2C`, the activation is reported as inactive: 13.7%. `Cc1sc2ncnc(NC3CCN(Cc4ccccc4)CC3)c2c1C` was tested, and the activation was inactive: -1.8%. For `CC(=O)N[C@@H](C)c1nc2ccccc2n1CCNC(=O)[C@H]1CCCN1c1nc(CN2CCCCC2)cs1`, the activation was inactive: 9.2%. `CC(/C=N/NC(=O)Cn1cnc2c1c(=O)n(C)c(=O)n2C)=C\c1ccco1` was tested, and the activation was inactive: -0.1%. With `Cc1ccc(OCCNC(=O)Cn2cnc3c(=O)n(C)c(=O)n(C)c32)cc1C` the activation was inactive: 3%. `CN(C)C(=O)Oc1noc2ccccc12` was tested, and the activation was inactive: -4.7%. For `O=c1c2cc([N+](=O)[O-])ccc2[nH]c2c([N+](=O)[O-])cc([N+](=O)[O-])cc12`, the activation was inactive: -1.7%. In the case of `CN(C)CCn1cnc2ccccc21`, the activation is reported as inactive: 21%. For `CCOC(=O)C1=C(Cn2cnc3ccccc32)NC(=O)NC1c1ccc(Cl)cc1` (stereo not drawn), the activation was inactive: -6.3%. `Cc1ccccc1OP(=O)(Nc1ccccn1)Oc1ccccc1C` was tested, and the activation was inactive: 4.6%. In the case of `CCc1cccc(C)c1N(C(=O)Cn1c(CO)nc2ccccc21)C(C)COC` (stereo not drawn), the activation is reported as inactive: -3.5%. In the case of `CC1CCCN(C(=O)Cn2cnc3c2c(=O)n(C)c(=O)n3C)C1` (stereo not drawn), the activation is reported as inactive: -7.1%. For `Cn1c(=O)c2c(ncn2CC(=O)N2CCN(c3ccccc3)CC2)n(C)c1=O`, the activation was inactive: -2%. In the case of `COCCN1CCn2c(nc3cc(Nc4nnc(C)c5ccccc45)ccc32)C1`, the activation is reported as inactive: 8.2%. With `COCCNC(=O)Cn1c(=O)n(C)c2ccccc21` the activation was inactive: -1.6%. `CCOC(=O)NC(Sc1ccccc1)C(Cl)(Cl)Cl` (stereo not drawn) was tested, and the activation was inactive: 0.3%. In the case of `Cc1nc2cc(C(F)(F)F)ccc2n1CCNc1nc(-c2cc(Cl)c(N)c(Cl)c2)cs1`, the activation is reported as inactive: -2%. For `O=c1[nH]c2ccccc2n1C1CCN(CCCC(c2ccc(F)cc2)c2ccc(F)cc2)CC1`, the activation was inactive: -0.1%. For `Cc1ccc(NP(=O)(Oc2cccc(C)c2)Oc2cccc(C)c2)nc1`, the activation was inactive: 17.4%. With `CC(C)(C)C(=O)N1CCn2c1nc1ccccc12` the activation was inactive: -4.6%. In the case of `Cc1ccc(Cn2c(=O)c3c(nc4n3CCN4Cc3ccco3)n(C)c2=O)cc1`, the activation is reported as inactive: -8.2%. In the case of `CCOC(=O)C1CCCN(C(=O)Cn2cnc3c2c(=O)n(C)c(=O)n3C)C1` (stereo not drawn), the activation is reported as inactive: -3.7%. For `Cn1c(=O)c2ncn(CC(=O)Nc3ccc(N4CCOCC4)cc3)c2n(C)c1=O`, the activation was inactive: 8.5%.
